Screening results deposited in PubChem by several laboratories.
Rows were chosen to be rich in hits. Some 1.5% of all compounds tested hit in one or more screens of this group.
eIF4H FP inh: inhibitors of RNA binding by human eIF4H; Q15056; eIF4H fluorescence polarization binding assay; inhibition, % at 35 µM; 290,000 tested, 0.94% active; AID 2012;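 also: calls also rest on retests at 20 µM and on dose response follow-up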
Pemphigus Ab inh: inhibitors of pemphigus antibody binding to human desmoglein-3 | P32926 | DSG3-coupled beads, scFv-anti-DSG3-GFP binding, flow cytometry; stronger effect = lower value | binding (percent of control), % at 10 µM | 310,000 tested, 0.48% active | AID 588358;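 active = binding more than 3 SD below its plate's average and above zero; inconclusive = below that plate limit but binding exactly zero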;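 also: hits lower antibody fragment binding to DSG3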
PABP1 MLLE inh: blocks PAM2 peptide binding to the PABP1 MLLE domain; GST-MLLE / FITC-PAM2 fluorescence polarization; inhibition, % at 20 µM; 360,000 tested, 0.36% active; in the data active = inhibition above about 35%, passing the limit was not always enough
PABP FP inh: blocks human PABP binding to poly(A) RNA. P11940. fluorescence polarization. calls only at 35 µM. 290,000 tested, 1% active;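 also: calls also rest on retests at 20 µM and on dose response follow-up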
Yeast UUG start: alters start codon recognition fidelity in yeast | S. cerevisiae UUG-firefly luciferase reporter, luminescence/redox ratio | activity score, % at 18.7 µM | hit rate 0.13% among 350,000 | AID 602363;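 active means replicate mean at a twofold rise or more, about +100% in these data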;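 further: firefly luciferase made from a UUG start codon reports start codon fidelity; reporter light over untreated wells divided by growth signal over untreated wells; some hits fall short of that in this replicate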
A number is an active result; i = inactive; ? = inconclusive; nt = not tested or not shown; + = active, no number. Unless noted, no rule for the calls is given here.

SMILES	eIF4H FP inh	Pemphigus Ab inh	PABP1 MLLE inh	PABP FP inh	Yeast UUG start
CCOC(=O)C(=O)Cc1cccnn1	nt	47.2	i	nt	nt
CCOC(=O)C(Cc1ccnc2ccccc12)=NO	nt	i	i	nt	i
COC(=O)c1cc2ccccn2c2c(C(=O)OC)c(C(=O)OC)cc1-2	i	i	i	i	i
COC(=O)c1cc2c(C)c(C)c3ccccn3c-2c1C(=O)OC	i	i	59.7	i	nt
COC(=O)c1cc2n3ccccc3c(C)c(-c3ccccc3)c-2c1C(=O)OC	129.9	i	47.1	+	i
N#CC1=C(N)C(C#N)(C#N)C(c2cccnc2)C2CN(C(=O)OCc3ccccc3)CC=C12 (configuration not stated)	65.8	i	i	i	i
C[C@@H]1CN([C@H](C)CO)C(=O)Cc2cc(N(C)C)ccc2O[C@H]1CN(C)Cc1ccncc1	nt	nt	nt	nt	i
O=C(Nc1cccc(Cl)c1)N[C@H]1CC[C@@H](CCNC(=O)C2CCOCC2)O[C@@H]1CO	nt	nt	nt	nt	i
COC(=O)/C(C(C)=O)=C(/C=C/C=C/N(C)C)N(C)C	80.5	i	i	+	i
O=C(N/N=C/c1ccncc1)c1cccc(S(=O)(=O)Nc2ccc(Cl)cc2)c1	69.6	i	i	i	nt
CCn1c(O)c(N=NC(=O)CNc2cccc(C)c2)c2ccccc21	i	i	i	i	nt
C=CCn1c(O)c(N=NC(=S)Nc2ccccc2F)c2ccccc21	i	3.1	38.9	i	nt
C=CCn1c(O)c(N=NC(=S)Nc2cccc(C)c2)c2ccccc21	i	nt	41.6	i	nt
C=CCn1c(O)c(N=NC(=S)Nc2ccccc2F)c2cc(S(=O)(=O)N3CCOCC3)ccc21	i	i	41.5	i	i
Cc1noc(C)c1S(=O)(=O)Nc1ccc2c(c1)CC(=O)N([C@@H](C)CO)C[C@@H](C)[C@H](CN(C)S(=O)(=O)c1c(C)noc1C)O2	nt	nt	nt	nt	i
C[C@@H]1CN([C@@H](C)CO)C(=O)c2cccc(NS(=O)(=O)c3ccc(Cl)cc3)c2O[C@@H]1CN(C)Cc1ccc(Cl)c(Cl)c1	nt	nt	nt	nt	i
CC(=O)Nc1ccc(NC(=O)CC2Nc3cccc4cccc(c34)NC2=O)cc1 (configuration not stated)	106.1	i	i	+	nt
Cc1cccc(NC(=O)CC2Nc3cccc4cccc(c34)NC2=O)c1 (configuration not stated)	113.0	nt	i	+	nt
O=C(CC1CC1)Nc1ccc2c(c1)[C@H]1C[C@H](CC(=O)NC3CCCC3)O[C@H](CO)[C@H]1O2	nt	nt	nt	nt	i
C[C@H](CO)N1C[C@H](C)[C@H](CN(C)C(=O)Nc2ccccc2)Oc2c(NC(=O)Nc3ccccc3)cccc2C1=O	nt	nt	nt	nt	i
COCc1cn(CC[C@H]2CC[C@@H](NC(=O)Nc3ccc4c(c3)OCO4)[C@H](CO)O2)nn1	nt	nt	nt	nt	i
CCCSc1nnc(N2C(=O)C(O)=C(C(=O)c3ccco3)C2c2ccccc2F)s1 (configuration not stated)	?	i	i	+	i
COc1cccc(NC(=O)/C=C/c2ccc(S(=O)(=O)N3CCOCC3)cc2)c1	nt	73.3	i	nt	i
Cc1ccc(C)n1-c1cc(S(=O)(=O)N2CCOCC2)ccc1N1CCCC1	92.5	i	i	+	i
COc1cc(/C=C/C(=O)Nc2cc(S(=O)(=O)N3CCOCC3)ccc2N2CCCC2)cc(OC)c1OC	i	i	39.8	i	i
SMILES	eIF4H FP inh	Pemphigus Ab inh	PABP1 MLLE inh	PABP FP inh	Yeast UUG start
COc1ccc(/C=C/C(=O)Nc2cc(S(=O)(=O)N3CCOCC3)ccc2N2CCCC2)cc1OC	i	i	i	i	nt
Cc1ccc(Cn2cnc3c(nnn3Cc3ccc(Cl)cc3)c2=O)cc1	i	73.2	i	i	i
Cc1cccc(Cn2cnc3c(nnn3Cc3ccc(Cl)cc3)c2=O)c1	i	i	i	i	i
Cc1ccc(OCC(=O)c2cc(C)n(C)c2C)c([N+](=O)[O-])n1	76.4	i	i	i	i
Cc1cc(C(=O)COc2cccc3cccnc23)c(C)n1C	i	i	i	i	i
C[C@H]1CN([C@@H](C)CO)C(=O)c2cc(Br)cnc2O[C@@H]1CN(C)C(=O)C1CC1	nt	nt	nt	nt	i
COc1ccccc1C(=O)Nc1ncc2c(n1)CC(c1ccco1)CC2=O (configuration not stated)	73.8	i	i	+	i
COc1ccc(/C=C2\SC(N)=NC2=O)cc1Br	i	i	i	i	i
COc1cc(/C=C2\SC(N)=NC2=O)cc(Cl)c1O	i	i	i	+	i
O=C(CSc1nc2ccccc2c(=O)n1CCCO)NCc1ccccc1	i	i	37.5	i	i
COCCCn1c(SCC(=O)NCc2ccccc2)nc2ccccc2c1=O	i	i	i	i	i
N#Cc1c(=O)c2nc(NCc3ccccc3)ncc2n2ccccc12	83.5	i	i	+	i
CC(=O)NNC(=O)c1sc(=S)n2c1[nH]c(=O)c1sccc12	53.6	i	i	+	nt
COc1cccc(Nc2ccccc2C(=O)O)c1	i	i	i	i	nt
COc1cc(-c2ccc(Nc3ccccc3C(=O)O)c(OC)c2)ccc1Nc1ccccc1C(=O)O	91.0	i	i	+	i
Nc1ccc2c(c1Cl)C(=O)c1ccc(N)c(Cl)c1C2=O	109.2	i	i	+	i
C[C@@H]1CN([C@@H](C)CO)C(=O)c2cc(NC(=O)Nc3ccccc3)ccc2O[C@@H]1CN(C)Cc1ccc(C(F)(F)F)cc1	nt	nt	nt	nt	i
CN1C(=O)c2ccccc2NC(=O)[C@]12O[C@@H]2c1cccc(O)c1	88.4	i	i	i	i
CS(=O)(=O)NN1C(=O)c2ccccc2NC1c1cccc(O)c1 (configuration not stated)	i	i	i	i	i
CC(C)C#Cc1ccc([C@@H]2[C@H](C#N)N(C(=O)C3CC3)[C@H]2CO)cc1	nt	nt	nt	nt	i
N#C/C(=C(/O)COC(=O)c1ccccc1O)c1nc2ccccc2s1	i	i	i	+	nt
CC(C)(C)c1ccc(C(=O)OC/C(O)=C(\C#N)c2nc3ccccc3s2)cc1	i	nt	i	i	nt
COc1ccc2c(c1)c1nc3ccccc3nc1n2Cc1ccc(OC(C)C)c(OC)c1	78.4	i	i	+	i
COc1ccc(Cn2c3ccc(OC)cc3c3nc4ccccc4nc32)cc1	?	i	i	i	i
COC(=O)Cn1c2ccc(C)cc2c2nc3ccccc3nc21	i	i	i	i	i
SMILES	eIF4H FP inh	Pemphigus Ab inh	PABP1 MLLE inh	PABP FP inh	Yeast UUG start
COc1ccc2c(c1)c1nc3ccccc3nc1n2CC(=O)OC(C)C	i	i	i	+	i
CCCCOc1[nH]c2nc(-c3ccco3)n(Cc3ccco3)c(=N)c2c1C#N	126.6	i	i	+	nt
c1ccc(CSc2nnc(-c3ccco3)n2Cc2ccco2)cc1	i	i	i	i	i
Cc1cc(C)n(-c2nc3ccccc3s2)n1	i	i	i	i	nt
Cc1c2c(=O)n(-c3nc4ccccc4s3)nc-2cc(O)n1Cc1ccccc1	59.7	i	i	+	nt
O=C(Nc1nc(-c2ccco2)c(-c2ccco2)s1)C1CC(=O)N(c2ccc3c(c2)OCCO3)C1 (configuration not stated)	84.3	i	i	+	i
COc1ccc2c(c1)CC/C(=C/c1ccco1)C2=O	?	i	i	+	nt
Nc1ccc2c(c1)C/C(=C/c1ccco1)C2=O	93.3	i	i	+	nt
